Sequences of proteins named here, by UniProt entry; tags and fusion partners are left off. Residues count along the entry.
UniProt P30530, 26-894 limits assumed: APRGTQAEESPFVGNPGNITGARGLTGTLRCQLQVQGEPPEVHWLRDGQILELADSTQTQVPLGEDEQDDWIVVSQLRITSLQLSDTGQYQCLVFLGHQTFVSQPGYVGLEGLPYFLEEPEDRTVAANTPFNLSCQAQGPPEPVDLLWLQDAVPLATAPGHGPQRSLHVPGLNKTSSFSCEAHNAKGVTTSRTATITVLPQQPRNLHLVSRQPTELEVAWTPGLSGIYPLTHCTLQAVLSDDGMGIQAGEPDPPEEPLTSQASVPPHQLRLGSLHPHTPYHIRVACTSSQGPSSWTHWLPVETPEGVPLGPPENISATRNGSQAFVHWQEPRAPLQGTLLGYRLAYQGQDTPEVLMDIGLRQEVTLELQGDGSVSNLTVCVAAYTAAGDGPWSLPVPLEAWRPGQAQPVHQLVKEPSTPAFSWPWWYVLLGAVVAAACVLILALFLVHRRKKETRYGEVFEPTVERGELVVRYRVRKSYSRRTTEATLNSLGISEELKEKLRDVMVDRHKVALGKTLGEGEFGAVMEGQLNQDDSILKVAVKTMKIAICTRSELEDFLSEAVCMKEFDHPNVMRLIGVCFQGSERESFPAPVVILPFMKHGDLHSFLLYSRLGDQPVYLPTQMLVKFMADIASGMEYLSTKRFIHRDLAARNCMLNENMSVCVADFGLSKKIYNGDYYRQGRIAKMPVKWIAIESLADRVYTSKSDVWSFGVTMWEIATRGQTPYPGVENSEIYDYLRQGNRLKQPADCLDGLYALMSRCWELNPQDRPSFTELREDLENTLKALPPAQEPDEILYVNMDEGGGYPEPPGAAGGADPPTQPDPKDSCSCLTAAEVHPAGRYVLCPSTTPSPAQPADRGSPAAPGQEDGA
UniProt P36888, 27-993 limits assumed: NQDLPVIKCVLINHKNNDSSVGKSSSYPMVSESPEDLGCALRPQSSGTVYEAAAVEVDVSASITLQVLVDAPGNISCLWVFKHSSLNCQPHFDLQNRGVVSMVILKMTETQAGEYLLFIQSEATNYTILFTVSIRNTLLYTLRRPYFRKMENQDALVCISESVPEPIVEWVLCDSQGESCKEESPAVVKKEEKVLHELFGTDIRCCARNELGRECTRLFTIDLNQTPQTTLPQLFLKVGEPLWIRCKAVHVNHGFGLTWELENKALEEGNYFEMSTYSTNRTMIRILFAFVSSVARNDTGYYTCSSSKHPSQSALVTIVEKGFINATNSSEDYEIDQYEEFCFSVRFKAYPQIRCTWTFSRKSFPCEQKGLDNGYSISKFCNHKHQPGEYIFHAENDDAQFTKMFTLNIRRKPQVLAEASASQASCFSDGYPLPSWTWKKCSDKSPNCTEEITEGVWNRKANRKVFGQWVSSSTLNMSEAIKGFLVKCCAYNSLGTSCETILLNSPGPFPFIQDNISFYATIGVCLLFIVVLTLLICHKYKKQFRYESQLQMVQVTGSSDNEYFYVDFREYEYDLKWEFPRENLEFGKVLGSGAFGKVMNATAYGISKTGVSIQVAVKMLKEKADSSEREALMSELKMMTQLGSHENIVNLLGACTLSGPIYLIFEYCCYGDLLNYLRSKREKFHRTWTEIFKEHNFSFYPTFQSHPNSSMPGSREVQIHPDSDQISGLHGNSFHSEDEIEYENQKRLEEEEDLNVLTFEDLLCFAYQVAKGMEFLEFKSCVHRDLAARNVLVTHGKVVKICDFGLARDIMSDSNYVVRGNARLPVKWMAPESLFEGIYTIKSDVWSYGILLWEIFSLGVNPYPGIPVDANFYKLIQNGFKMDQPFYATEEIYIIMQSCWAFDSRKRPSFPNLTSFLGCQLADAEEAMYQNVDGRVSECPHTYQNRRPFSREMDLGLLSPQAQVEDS
UniProt P35968, 20-1356 limits assumed: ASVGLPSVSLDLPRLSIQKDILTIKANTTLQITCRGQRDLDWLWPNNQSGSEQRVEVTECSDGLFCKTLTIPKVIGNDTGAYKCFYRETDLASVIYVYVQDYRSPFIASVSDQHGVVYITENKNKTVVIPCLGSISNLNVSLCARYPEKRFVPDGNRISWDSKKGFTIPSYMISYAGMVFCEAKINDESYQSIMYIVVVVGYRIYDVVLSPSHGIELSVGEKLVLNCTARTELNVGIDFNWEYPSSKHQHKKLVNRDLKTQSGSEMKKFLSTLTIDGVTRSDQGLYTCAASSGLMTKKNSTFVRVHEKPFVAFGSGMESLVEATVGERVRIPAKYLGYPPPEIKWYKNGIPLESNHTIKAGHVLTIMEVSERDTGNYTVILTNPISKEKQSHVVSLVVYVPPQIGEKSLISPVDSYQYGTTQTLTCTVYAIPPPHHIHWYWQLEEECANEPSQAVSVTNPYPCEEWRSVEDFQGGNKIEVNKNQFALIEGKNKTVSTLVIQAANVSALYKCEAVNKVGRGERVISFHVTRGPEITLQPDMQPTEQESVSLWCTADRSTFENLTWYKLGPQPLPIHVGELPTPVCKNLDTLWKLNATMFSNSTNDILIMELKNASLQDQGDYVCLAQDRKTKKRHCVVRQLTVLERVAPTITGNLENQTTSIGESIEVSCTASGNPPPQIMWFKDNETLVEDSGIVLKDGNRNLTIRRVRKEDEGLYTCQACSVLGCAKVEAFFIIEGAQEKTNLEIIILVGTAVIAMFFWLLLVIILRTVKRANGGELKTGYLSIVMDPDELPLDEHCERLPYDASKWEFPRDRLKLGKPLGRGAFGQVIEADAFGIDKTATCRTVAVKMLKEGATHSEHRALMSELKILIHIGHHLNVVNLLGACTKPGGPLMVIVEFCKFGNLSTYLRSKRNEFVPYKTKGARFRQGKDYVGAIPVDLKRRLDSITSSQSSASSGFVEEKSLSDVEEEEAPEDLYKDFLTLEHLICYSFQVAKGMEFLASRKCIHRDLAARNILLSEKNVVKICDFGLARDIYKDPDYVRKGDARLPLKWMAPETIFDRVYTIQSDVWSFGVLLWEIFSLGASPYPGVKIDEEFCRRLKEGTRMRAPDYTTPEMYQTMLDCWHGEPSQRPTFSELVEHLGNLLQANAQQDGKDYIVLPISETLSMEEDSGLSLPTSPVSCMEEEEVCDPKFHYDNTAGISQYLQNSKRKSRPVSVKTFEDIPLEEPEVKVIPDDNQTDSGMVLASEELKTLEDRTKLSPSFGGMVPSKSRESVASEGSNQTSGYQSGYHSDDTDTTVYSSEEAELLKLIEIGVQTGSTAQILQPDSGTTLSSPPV
UniProt P10721, 26-976 limits assumed: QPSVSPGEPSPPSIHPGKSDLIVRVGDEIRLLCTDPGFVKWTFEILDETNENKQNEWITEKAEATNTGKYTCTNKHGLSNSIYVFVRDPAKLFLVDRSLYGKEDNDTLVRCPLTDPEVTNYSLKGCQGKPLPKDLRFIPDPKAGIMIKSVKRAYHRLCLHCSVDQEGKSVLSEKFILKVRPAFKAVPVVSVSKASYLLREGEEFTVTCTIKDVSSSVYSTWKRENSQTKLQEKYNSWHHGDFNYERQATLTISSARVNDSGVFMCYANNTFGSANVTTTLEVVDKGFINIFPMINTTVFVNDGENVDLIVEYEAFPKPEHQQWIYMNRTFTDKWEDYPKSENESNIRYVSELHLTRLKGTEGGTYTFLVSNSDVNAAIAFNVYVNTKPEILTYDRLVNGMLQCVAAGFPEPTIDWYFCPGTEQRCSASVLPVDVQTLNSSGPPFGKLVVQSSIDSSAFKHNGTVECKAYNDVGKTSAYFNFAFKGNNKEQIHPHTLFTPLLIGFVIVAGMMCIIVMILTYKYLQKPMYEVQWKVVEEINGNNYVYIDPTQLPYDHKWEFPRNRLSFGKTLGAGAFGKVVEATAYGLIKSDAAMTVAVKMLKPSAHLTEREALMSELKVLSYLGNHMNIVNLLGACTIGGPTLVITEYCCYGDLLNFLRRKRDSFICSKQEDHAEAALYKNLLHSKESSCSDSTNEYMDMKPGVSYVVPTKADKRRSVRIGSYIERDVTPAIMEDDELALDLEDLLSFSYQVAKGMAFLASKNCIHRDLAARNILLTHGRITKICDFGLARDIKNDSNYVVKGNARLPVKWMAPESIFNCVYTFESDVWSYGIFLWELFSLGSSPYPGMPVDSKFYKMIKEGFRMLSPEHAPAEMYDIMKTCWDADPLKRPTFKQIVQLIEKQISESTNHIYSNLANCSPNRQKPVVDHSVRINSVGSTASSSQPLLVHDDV
UniProt P08581, 25-1390 limits assumed: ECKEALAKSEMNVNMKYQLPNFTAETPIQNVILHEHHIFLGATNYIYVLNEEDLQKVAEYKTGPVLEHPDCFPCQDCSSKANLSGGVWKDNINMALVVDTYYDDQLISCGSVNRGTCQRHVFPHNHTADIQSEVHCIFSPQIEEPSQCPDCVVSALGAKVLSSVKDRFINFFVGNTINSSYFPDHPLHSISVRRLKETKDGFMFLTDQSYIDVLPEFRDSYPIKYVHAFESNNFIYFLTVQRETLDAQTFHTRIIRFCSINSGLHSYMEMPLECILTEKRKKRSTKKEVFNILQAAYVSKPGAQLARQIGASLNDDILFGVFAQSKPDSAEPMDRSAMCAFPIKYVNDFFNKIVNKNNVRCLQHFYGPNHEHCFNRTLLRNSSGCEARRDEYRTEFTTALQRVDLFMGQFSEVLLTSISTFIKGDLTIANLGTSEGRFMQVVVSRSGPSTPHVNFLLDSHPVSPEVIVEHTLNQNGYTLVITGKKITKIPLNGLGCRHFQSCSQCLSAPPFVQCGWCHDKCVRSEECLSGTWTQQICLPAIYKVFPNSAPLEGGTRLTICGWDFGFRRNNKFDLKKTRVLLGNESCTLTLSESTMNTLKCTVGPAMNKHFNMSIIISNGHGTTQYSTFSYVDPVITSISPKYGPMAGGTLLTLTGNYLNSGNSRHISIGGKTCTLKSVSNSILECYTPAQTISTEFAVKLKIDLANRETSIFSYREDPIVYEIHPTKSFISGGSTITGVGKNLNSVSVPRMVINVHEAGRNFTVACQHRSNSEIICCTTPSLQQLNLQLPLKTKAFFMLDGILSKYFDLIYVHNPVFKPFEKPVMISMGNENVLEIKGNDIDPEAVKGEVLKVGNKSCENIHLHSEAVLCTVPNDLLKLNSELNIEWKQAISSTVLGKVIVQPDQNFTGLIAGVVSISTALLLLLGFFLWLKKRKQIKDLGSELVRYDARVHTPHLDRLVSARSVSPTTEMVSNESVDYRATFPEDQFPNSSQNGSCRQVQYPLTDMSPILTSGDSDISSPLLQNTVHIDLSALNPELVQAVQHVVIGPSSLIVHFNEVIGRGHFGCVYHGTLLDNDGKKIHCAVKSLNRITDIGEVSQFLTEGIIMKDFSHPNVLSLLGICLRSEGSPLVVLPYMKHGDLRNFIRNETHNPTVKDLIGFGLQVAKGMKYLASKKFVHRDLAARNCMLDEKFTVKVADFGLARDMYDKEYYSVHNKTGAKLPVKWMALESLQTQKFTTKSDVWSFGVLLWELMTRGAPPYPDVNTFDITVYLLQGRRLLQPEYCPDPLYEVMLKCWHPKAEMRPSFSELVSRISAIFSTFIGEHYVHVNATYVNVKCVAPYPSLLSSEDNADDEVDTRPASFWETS

In patent EP4831189A1, “KINASE INHIBITOR ACTIVATED IN TUMOR MICROENVIRONMENT, COMPOSITION AND USE” (dated 2026):

Key:
mouse xenograft HUH7 = assay: Efficacy study in HUH7 tumor model (Embodiment 13); settings: for Body weight vs D0 D36 / Tumor size (mean + SEM) D36: HUH7, dose not given; for tumor inhibition effect: HUH7 xenograft model, compared with the normal saline group
mouse xenograft CT-26 = assay: Efficacy study in CT-26 tumor model (Embodiment 11); settings: for Body weight vs D0 D20 / Tumor volume (mean ± SEM) D20: CT-26, dose not given; for tumor inhibition effect: CT-26 syngeneic xenograft model, compared with the normal saline group
mouse xenograft MKN45 = assay: Efficacy study in MKN45 tumor model (Embodiment 12); settings: for tumor inhibition effect: MKN45 xenograft model, compared with the normal saline group
MDA-MB-231 tumor model = assay: Efficacy study in MDA-MB-231 tumor model (Embodiment 14); settings: for tumor inhibition effect: MDA-MB-231 tumor model, compared with the normal saline group
B16F10 cells = assay: Cytotoxicity study (MTT) on B16F10 cells; settings: 48 hours, 0 to 100 µM
A549 cells = assay: Cytotoxicity study (MTT) on A549 cells; settings: 48 hours, 0 to 100 µM
AXL = AXL (Homo sapiens, UniProt P30530); assay: Kinase inhibitory activity by ADP-Glo method; settings: read-out: IC50 AXL
FLT3 = FLT3 (Homo sapiens, UniProt P36888); assay: Kinase inhibitory activity by ADP-Glo method; settings: read-out: IC50 FLT3
KDR (VEGFR2) = KDR (VEGFR2) (Homo sapiens, UniProt P35968); assay: Kinase inhibitory activity by ADP-Glo method; settings: read-out: IC50 KDR (VEGFR2)
Kit = Kit (Homo sapiens, UniProt P10721); assay: Kinase inhibitory activity by ADP-Glo method; settings: read-out: IC50 Kit
Met = Met (Homo sapiens, UniProt P08581); assay: Kinase inhibitory activity by ADP-Glo method; settings: read-out: IC50 Met
[1] = MDA-MB-231, dose not given, D36

SMILES	Body weight vs D0 D36 (mouse xenograft HUH7)	Tumor size (mean + SEM) D36 (mouse xenograft HUH7)	tumor inhibition effect (mouse xenograft HUH7)	Body weight vs D0 D20 (mouse xenograft CT-26)	Tumor volume (mean ± SEM) D20 (mouse xenograft CT-26)	tumor inhibition effect (mouse xenograft CT-26)	Tumor growth inhibition rate TGI D28 (mouse xenograft MKN45; MKN45, 7.90 µmol/kg, D28)	Tumor volume (mean ± SEM) D36 (mouse xenograft MKN45; MKN45, 7.90 µmol/kg)	tumor inhibition effect (mouse xenograft MKN45)	Tumor growth inhibition rate TGI D36 (MDA-MB-231 tumor model; [1])	tumor inhibition effect (MDA-MB-231 tumor model)	toxicity to B16F10 cells (B16F10 cells)	toxicity to A549 cells (A549 cells)	IC50 (AXL)	IC50 (FLT3)	IC50 (KDR (VEGFR2))	IC50 (Kit)	IC50 (Met)	Body weight vs D0 D28 (mouse xenograft MKN45; MKN45, 7.90 µmol/kg, D28)	Body weight vs D0 D36 (MDA-MB-231 tumor model; [1])
COc1cc2c(Oc3ccc(NC(=O)C4(C(=O)Nc5ccc(F)cc5)CC4)cc3F)ccnc2cc1OCCCN1CCOCC1	18.4%	2509.13 ± 902.2 mm^3	good tumor inhibition effects	19.3%	1656.25 ± 369.27 mm^3	good tumor inhibition effects	40.76%	695.24 ± 63.91 mm^3	good tumor inhibition effects	47.70%	good tumor inhibition effects									
COc1cc2c(Oc3ccc(NC(=O)C4(C(=O)Nc5ccc(F)cc5)CC4)cc3F)ccnc2cc1OCCCN1CCNCC1	8.8%	1614.49 ± 323.28 mm^3	did not exhibit a tumor inhibition effect	13.4%	3047.86 ± 1271.21 mm^3	did not exhibit a tumor inhibition effect	-0.21%	1082.48 ± 52.47 mm^3	did not exhibit a tumor inhibition effect	0.13%	did not exhibit a tumor inhibition effect	stronger than that of foretinib	stronger than that of foretinib	0.23 nM	7.5 nM	2.34 nM	9.1 nM	9.13 nM	-1.8%	2.7%
